We go through 1 compound from patent publication US20080312292A1, “Antipruritics” (priority 2002, published 2008).

By UniProt entry, the sequences of proteins in these tests, tags left out.
UniProt P47746, whole entry: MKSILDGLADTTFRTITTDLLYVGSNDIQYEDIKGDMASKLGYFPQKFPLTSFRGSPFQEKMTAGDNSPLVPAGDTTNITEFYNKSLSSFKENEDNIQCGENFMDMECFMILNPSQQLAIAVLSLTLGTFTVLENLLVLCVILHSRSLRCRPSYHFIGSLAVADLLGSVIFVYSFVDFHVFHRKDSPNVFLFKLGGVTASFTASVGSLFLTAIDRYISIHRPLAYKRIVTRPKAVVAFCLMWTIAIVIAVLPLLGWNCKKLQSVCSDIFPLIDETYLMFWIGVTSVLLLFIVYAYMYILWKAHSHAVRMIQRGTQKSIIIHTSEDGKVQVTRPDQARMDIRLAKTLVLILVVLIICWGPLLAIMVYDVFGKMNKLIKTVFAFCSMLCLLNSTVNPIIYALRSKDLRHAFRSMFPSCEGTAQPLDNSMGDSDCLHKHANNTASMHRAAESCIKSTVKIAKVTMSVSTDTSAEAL

This assay deals with T1, mouse CB1 receptor (Mus musculus, UniProt P47746).
T1 construct: The membrane fractions of mouse brain and spleen that abundantly express CB1 and CB2 receptor, respectively; from tissue; host or cells: mouse brain membrane fraction (C57BL/6 J)
The assay is described as follows: Binding inhibitory activity to mouse cannabinoid receptors, brain membrane fraction. Further details: species or system C57BL/6 J mice.

On to `CCCCCc1cc(O)c2c(c1)OC(C)(C)[C@@H]1CCC(C)=C[C@@H]21` [Δ^9-tetrahydrocannabinol, delta-9-tetrahydrocannabinol, reference compound], for which the affinity, expressed as Ki, was 40 nM.

As a reminder, the Ki is the dissociation constant of the complex between target and ligand, obtained from inhibition or displacement.
